Measured values: patent US5567683A, “Substituted lactose and lactosamine derivatives as cell adhesion inhibitors” (Glycomed Incorporated, priority 1994, dated 1996)

Test system: hepatocytes
Settings: result in words only

Substance: N,6N.6N' Tris (20) Lys-Tyr-Lys [trivalent derivative]
- inhibiting the binding of lactose to hepatocytes: especially effective
